This passage reports inhibition results from PubChem BioAssay AID1645857 (Buhrlage Lab, Dana-Farber Cancer Institute and Novartis …, 2021).

Amino acid sequences for entries named in this document (tags omitted).
UniProt Q96RU2, whole entry: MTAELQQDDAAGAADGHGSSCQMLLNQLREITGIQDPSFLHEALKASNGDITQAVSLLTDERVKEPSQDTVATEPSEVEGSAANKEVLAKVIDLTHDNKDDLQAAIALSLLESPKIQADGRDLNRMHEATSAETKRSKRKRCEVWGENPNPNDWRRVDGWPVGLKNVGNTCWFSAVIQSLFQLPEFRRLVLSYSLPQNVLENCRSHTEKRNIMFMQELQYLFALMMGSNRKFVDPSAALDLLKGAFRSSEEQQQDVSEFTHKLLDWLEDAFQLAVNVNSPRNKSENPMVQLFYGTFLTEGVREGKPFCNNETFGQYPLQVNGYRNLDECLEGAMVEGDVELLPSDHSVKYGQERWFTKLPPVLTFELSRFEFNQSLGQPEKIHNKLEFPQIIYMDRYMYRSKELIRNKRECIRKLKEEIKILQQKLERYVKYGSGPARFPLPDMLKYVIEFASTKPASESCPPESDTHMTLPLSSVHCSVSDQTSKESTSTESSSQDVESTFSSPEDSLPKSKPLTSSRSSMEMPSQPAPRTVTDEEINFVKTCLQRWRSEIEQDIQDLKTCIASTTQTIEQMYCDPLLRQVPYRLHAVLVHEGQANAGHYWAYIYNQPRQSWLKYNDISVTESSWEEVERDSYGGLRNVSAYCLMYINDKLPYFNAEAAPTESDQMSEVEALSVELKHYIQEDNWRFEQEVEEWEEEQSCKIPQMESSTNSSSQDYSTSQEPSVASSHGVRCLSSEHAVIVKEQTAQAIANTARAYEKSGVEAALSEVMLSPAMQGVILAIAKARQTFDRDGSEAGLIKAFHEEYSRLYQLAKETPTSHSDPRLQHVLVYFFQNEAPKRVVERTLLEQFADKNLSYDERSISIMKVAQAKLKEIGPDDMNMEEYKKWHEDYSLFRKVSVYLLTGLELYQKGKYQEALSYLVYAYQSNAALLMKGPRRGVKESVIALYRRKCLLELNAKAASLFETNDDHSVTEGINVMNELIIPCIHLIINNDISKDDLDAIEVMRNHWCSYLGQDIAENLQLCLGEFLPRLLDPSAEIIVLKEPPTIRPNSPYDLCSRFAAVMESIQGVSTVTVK

The term inhibition denotes the change of the read-out against control, counted positive when it falls.

SMILES strings stand for the structures. This is a selection; strong and weak results do not stand in their true shares. Some results for these compounds are left out of this collection, so the calls shown say nothing about other tests. The source made the active and inactive calls. Rule as the data show it: active = inhibition above about 30%; inactive = the rest.

The target of the experiment is Ubiquitin carboxyl-terminal hydrolase 28 (Homo sapiens) (UniProt Q96RU2). The experiment is described as follows: blocks human USP28 ubiquitin-rhodamine cleavage (AID 1645857). Particulars: purified USP28, Ub-rhodamine cleavage fluorescence, 30 min; at 25 µM; stronger effect = higher value.
For the molecule `O=C(NCC1(N2CCCCC2)CCCCC1)c1ccc2ccccc2c1`, the inhibition is inactive: -5.46%.

`O=C(NCC1(N2CCOCC2)CCCCC1)c1ccccc1F`: the inhibition is inactive: -4.59%.

On to `Cc1c(C(=O)NCC2(N(C)C)CCCCC2)oc2ccccc12`, for which the inhibition is inactive: -3.88%. Turning to `Cc1c(C(=O)NCC2(N(C)C)CCCCC2)oc2ccc(F)cc12`, the inhibition is inactive: 9.53%. As for `COc1cccc(C(=O)NCC2(N3CCCCC3)CCCCC2)c1`, the figure is inactive: -33.4%. Regarding `COc1ccc(C(=O)NCC2(N3CCOCC3)CCCCC2)cc1`, the inhibition is inactive: -2.83%. As for `O=C(NCC1(N2CCCCC2)CCCCC1)c1ccc2c(c1)OCCO2`, the figure is inactive: 4.34%.
